Two molecules from ChEMBL document CHEMBL1938343, “Lead optimisation of selective non-zinc binding inhibitors of MMP13. Part 2” (Bioorg Med Chem Lett, 2012) can be followed below.

Chains of the proteins cited; added tags and fusions are not shown.
UniProt P05177, whole entry: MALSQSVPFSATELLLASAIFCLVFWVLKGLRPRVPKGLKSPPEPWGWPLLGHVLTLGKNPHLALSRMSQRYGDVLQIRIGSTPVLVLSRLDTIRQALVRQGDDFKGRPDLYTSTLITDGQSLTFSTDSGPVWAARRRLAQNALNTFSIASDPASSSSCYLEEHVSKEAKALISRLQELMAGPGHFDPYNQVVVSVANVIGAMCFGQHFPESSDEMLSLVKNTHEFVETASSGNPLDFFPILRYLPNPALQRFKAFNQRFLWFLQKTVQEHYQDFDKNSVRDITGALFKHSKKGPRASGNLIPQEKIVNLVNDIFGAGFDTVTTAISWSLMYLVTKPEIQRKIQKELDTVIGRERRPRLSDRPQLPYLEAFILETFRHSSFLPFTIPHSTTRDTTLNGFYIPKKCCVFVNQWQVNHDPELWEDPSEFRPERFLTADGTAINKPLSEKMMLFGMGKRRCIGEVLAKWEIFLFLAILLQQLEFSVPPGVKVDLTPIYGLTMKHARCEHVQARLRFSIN

SMILES strings stand for the structures. Where only a bound is given, the exact number is not on record here.

In one assay the target is Collagenase 3 (Homo sapiens, UniProt P45452). Kind of assay: Inhibition of recombinant human MMP13 using Mca-Pro-cyclohexyl-Ala-Gly-Nva-His-Ala- Dap(Dnp)-NH2 as substrate by fluorometric analysis.
The target in another assay is T1, Interstitial collagenase (Homo sapiens, UniProt P03956).
T1 sequence (P03956 whole entry): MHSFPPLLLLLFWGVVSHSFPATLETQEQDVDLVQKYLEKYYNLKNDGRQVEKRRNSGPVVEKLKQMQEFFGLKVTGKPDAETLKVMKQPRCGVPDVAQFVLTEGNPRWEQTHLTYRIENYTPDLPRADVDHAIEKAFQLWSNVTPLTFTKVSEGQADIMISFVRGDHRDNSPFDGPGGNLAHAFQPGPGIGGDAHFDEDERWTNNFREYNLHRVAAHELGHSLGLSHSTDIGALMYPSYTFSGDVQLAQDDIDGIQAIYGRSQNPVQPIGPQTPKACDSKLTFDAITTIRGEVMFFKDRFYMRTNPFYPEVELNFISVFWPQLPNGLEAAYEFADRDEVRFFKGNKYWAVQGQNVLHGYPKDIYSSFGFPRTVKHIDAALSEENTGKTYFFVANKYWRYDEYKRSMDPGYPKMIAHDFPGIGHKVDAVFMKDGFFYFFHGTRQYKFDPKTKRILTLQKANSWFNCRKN
Kind of assay: Inhibition of MMP1 using Mca-Pro-cyclohexyl-Ala-Gly-Nva-His-Ala- Dap(Dnp)-NH2 as substrate by fluorometric analysis.

The next assay deals with Cytochrome P450 1A2 (Homo sapiens, UniProt P05177). Kind of assay: Inhibition of CYP1A2. It is filed as ADME.

Consider `O=C(NC1CCCS(=O)(=O)C1)c1ccc(Oc2ccc(C#C[C@]3(O)CN4CCC3CC4)cc2)cc1` (single isomer, unassigned; diastereomer 1), for which the IC50 at Collagenase 3 was determined as 0.037 µM.
Take `CN1CCC(NC(=O)c2ccc(Oc3ccc(C#C[C@]4(O)CN5CCC4CC5)cc3)cc2)CC1`: the IC50 against Interstitial collagenase and against Cytochrome P450 1A2 was greater than 10 µM in each case.

Usually IC50 stands for the midpoint of a concentration-inhibition curve.
